# BindingDB's records for doi:10.1016/j.bmcl.2004.07.073 (University of Southern California, 2004)
# pIC50, pKi: −log10 of the molar value.
# Experiments:
# [1] = molecular target: T1, Cathepsin B (Homo sapiens, UniProt P07858); assay: Inhibitory concentration against human liver cathepsin B
# [2] = molecular target: T1, Cathepsin B; assay: Tested for inhibitory effect on human liver cathepsin B
smiles,measurement,setting,value
CC[P+](CC)(CC)[Au-][S][C@@H]1O[C@H](COC(C)=O)[C@@H](OC(C)=O)[C@H](OC(C)=O)[C@H]1OC(C)=O,pIC50,[1],3.60
same,pKi,[2],3.36
